Ki and EC50 data for 5 compounds are collected here from BindingDB's records for US9175000.

Usually Ki stands for a measure of affinity in units of concentration, obtained from inhibition or displacement. What is called EC50 is the concentration at which the effect is half-maximal. A higher EC50 goes with a less potent agent.

Holding throughout (conditions): pH 7.4
Test [1] deals with T1, Kappa-type opioid receptor (Homo sapiens, UniProt P41145). Nature of the test: Radioligand Dose-Displacement Binding Assays (kappa).
Test [2] has as its target T2, Mu-type opioid receptor (Homo sapiens, UniProt P35372). Briefly: GTPgammaS Functional Assay (mu).
Test [3] deals with T2, Mu-type opioid receptor. Nature of the test: Radioligand Dose-Displacement Binding Assays (mu).
Test [4] has as its target T1, Kappa-type opioid receptor. Briefly: GTPgammaS Functional Assay.

Turning to `COc1ccc2c3c1O[C@H]1[C@@]4(OC)CC[C@@]5(C[C@@H]4[C@](O)(CC(O)CO)c4ccccc4)[C@@H](C2)N(CC2CC2)CC[C@]315` (some centres not stated), the Ki in test [1] was 0.0129 µM; in test [3] it was 0.0499 µM. In test [2], this compound registered an EC50 of 0.196 µM.

Regarding `COc1ccc2c3c1O[C@H]1[C@@]4(OC)CC[C@@]5(C[C@@H]4C(NCC(=O)O)c4ccccc4)[C@@H](C2)N(CC2CC2)CC[C@]315` (some centres not stated), the affinity in test [1], expressed as Ki, was 0.0522 µM.

Compound `COc1ccc2c3c1O[C@H]1[C@@]4(OC)CC[C@@]5(C[C@@H]4C(N[C@@H](C(N)=O)c4ccccc4)c4ccccc4)[C@@H](C2)N(CC2CC2)CC[C@]315` (some centres not stated) registered a Ki in test [3] of 0.123 µM.

In the case of `COc1ccc2c3c1O[C@H]1[C@@]4(OC)CC[C@@]5(C[C@@H]4C(NC(C(=O)O)c4ccccc4)c4ccccc4)[C@@H](C2)N(CC2CC2)CC[C@]315` (some centres not stated), the Ki in test [3] came to 0.278 µM.

`COc1ccc2c3c1O[C@H]1[C@@]4(OC)CC[C@@]5(C[C@@H]4C(NC(C)C(N)=O)c4ccccc4)[C@@H](C2)N(CC2CC2)CC[C@]315` (some centres not stated) came in with an EC50 in test [4] of 0.0683 µM.
